In the Kinase Knowledgebase extract (Sharma et al. 2016) one finds IC50 data, which are given here for 37 molecules.

This experiment concerns the target CDK2 (human) (UniProt P24941). Put plainly: Enzyme Assay.

With `CN1CCN(C[C@H](Cc2ccc(O)cc2)NC(=O)c2cc(C(=O)O)c3cc(C=Cc4ccc(Cl)cc4)ccc3n2)CC1`, the IC50 (usually the concentration at which inhibition is half-maximal) was at most 1000 nM.
`COC[C@H](Cc1ccc(O)cc1)NC(=O)c1cc(NS(=O)(=O)C(C)(C)C)c2cc(-c3cccc(C(F)(F)F)c3)ccc2n1` displayed an IC50 of at most 1000 nM.
To `CCOC[C@H](Cc1ccc(O)cc1)NC(=O)c1cc(C(=O)O)c2cc(-c3cccc(C(F)(F)F)c3)ccc2n1` belongs at most 1000 nM; to `COC(=O)C(Cc1ccc(O)cc1)NC(=O)c1cc(C(=O)N(C)C)c2cc(-c3cccs3)ccc2n1` (configuration not stated), at most 1000 nM.
To `COC(=O)C[C@H](Cc1ccc(O)cc1)NC(=O)c1cc(C(=O)O)c2cc(-c3cccc(C(F)(F)F)c3)ccc2n1` belongs at most 1000 nM; to `COC(=O)[C@H](Cc1ccc(O)c(O)c1)NC(=O)c1cc(C(=O)O)c2cc(-c3cccc(C(F)(F)F)c3)ccc2n1`, at most 1000 nM; to `COC(=O)[C@H](Cc1ccc(O)cc1)NC(=O)c1cc(C(=O)O)c2cc(C3CC3c3ccccc3)ccc2n1` (some centres not stated), at most 1000 nM.
Then `COC[C@H](Cc1ccc(O)cc1)NC(=O)c1cc(C(=O)O)c2cc(-c3cccc(Cn4ccnc4)c3)ccc2n1`, with at most 1000 nM; and `CCS(=O)(=O)Nc1cc(C(=O)N[C@H](COC)Cc2ccc(O)cc2)nc2ccc(-c3cccc(C(F)(F)F)c3)cc12`, with at most 1000 nM.
`COC[C@H](Cc1ccc(O)cc1)NC(=O)c1cc(C(=O)O)c2cc(COc3ccc(OC(F)(F)F)cc3)ccc2n1` showed an IC50 of at most 1000 nM.
Then `COC[C@H](Cc1ccc(O)cc1)NC(=O)c1cc(NS(=O)(=O)C(C)C)c2cc(-c3cccc(C(F)(F)F)c3)ccc2n1`, with at most 1000 nM; and `COC[C@H](Cc1ccc(O)cc1)NC(=O)c1cc(NS(=O)(=O)Cc2ccccc2)c2cc(-c3cccc(C(F)(F)F)c3)ccc2n1`, with at most 1000 nM.
Then `COC(=O)[C@H](Cc1ccc(O)cc1)NC(=O)c1cc(C(=O)O)c2cc(C=Cc3ccc(C(F)(F)F)cc3)ccc2n1`, with at most 1000 nM; and `COC(=O)[C@H](Cc1ccc(O)cc1)NC(=O)c1cc(C(=O)O)c2cc(-c3ccc(OCc4ccccc4)cc3)ccc2n1`, with at most 1000 nM; and `COC(=O)[C@H](Cc1ccc(O)cc1)NC(=O)c1cc(C(=O)O)c2cc(-c3ccc4c(c3)OCO4)ccc2n1`, with at most 1000 nM.
`COC[C@H](Cc1ccc(O)cc1)NC(=O)c1cc(NS(=O)(=O)C(C)(C)C)c2cc(-c3cccc(Cn4ccccc4=O)c3)ccc2n1` yielded an IC50 of at most 1000 nM.
Then `COC[C@H](Cc1ccc(O)cc1)NC(=O)c1cc(NS(=O)(=O)C(C)(C)C)c2cc(-c3cccc(Cn4cccn4)c3)ccc2n1`, with at most 1000 nM; and `COC[C@H](Cc1ccc(O)cc1)NC(=O)c1cc(NS(=O)(=O)c2ccccc2)c2cc(-c3cccc(C(F)(F)F)c3)ccc2n1`, with at most 1000 nM.
Then `COC[C@H](Cc1ccc(O)cc1)NC(=O)c1cc(C(=O)O)c2cc(-c3cccc(Cn4cccn4)c3)ccc2n1`, with at most 1000 nM; and `CCCCS(=O)(=O)Nc1cc(C(=O)N[C@H](COC)Cc2ccc(O)cc2)nc2ccc(-c3cccc(C(F)(F)F)c3)cc12`, with at most 1000 nM; and `O=C(N[C@H](CO)Cc1ccc(O)cc1)c1cc(C(=O)O)c2cc(-c3cccc(C(F)(F)F)c3)ccc2n1`, with at most 1000 nM.
Then `COC(=O)C(NC(=O)c1cc(C(=O)O)c2cc(-c3cccc(C(F)(F)F)c3)ccc2n1)[C@@H](C)c1ccccc1` (some centres not stated), with at most 1000 nM; and `COC(=O)c1cccc(-c2ccc3nc(C(=O)N[C@@H](Cc4ccc(O)cc4)C(=O)OC)cc(C(=O)O)c3c2)c1`, with at most 1000 nM.
`COC[C@H](Cc1ccc(O)cc1)NC(=O)c1cc(C(=O)O)c2cc(OCc3ccc(Cl)cc3)ccc2n1`: the IC50 was at most 1000 nM.
With `COC[C@H](Cc1ccc(O)cc1)NC(=O)c1cc(C(=O)O)c2cc(OCc3cccc(C(F)(F)F)c3)ccc2n1`, the IC50 is at most 1000 nM.
As to `COC(=O)[C@H](Cc1ccc(O)cc1)NC(=O)c1cc(C(=O)O)c2cc(-c3ccc(C(C)(C)C)cc3)ccc2n1`, the IC50 was at most 1000 nM.
Then `CC(C)(C)OC(=O)[C@H](Cc1ccc(O)cc1)NC(=O)c1cc(C(=O)O)c2cc(-c3cccc(C(F)(F)F)c3)ccc2n1`, with at most 1000 nM; and `COC(=O)[C@H](Cc1ccc(O)cc1)NC(=O)c1cc(C(=O)O)c2cc(-c3ccc(C(F)(F)F)cc3)ccc2n1`, with at most 1000 nM; and `COC[C@H](Cc1ccc(O)cc1)NC(=O)c1cc(NS(=O)(=O)C(C)(C)C)c2cc(-c3cccc(Cn4ccnc4)c3)ccc2n1`, with at most 1000 nM.
To `COC[C@H](Cc1ccc(O)cc1)NC(=O)c1cc(C(=O)O)c2cc(-c3cccc(COc4ccccn4)c3)ccc2n1` belongs at most 1000 nM; to `COC[C@H](Cc1ccc(O)cc1)NC(=O)c1cc(NS(=O)(=O)c2cccs2)c2cc(-c3cccc(C(F)(F)F)c3)ccc2n1`, at most 1000 nM.
The molecule `NC[C@H](Cc1ccc(O)cc1)NC(=O)c1cc(C(=O)O)c2cc(C=Cc3ccc(Cl)cc3)ccc2n1` registered an IC50 of at most 1000 nM.
As for `COC(=O)[C@H](Cc1ccc(O)cc1)NC(=O)c1cc(C(=O)O)c2cc(C=Cc3ccccc3)ccc2n1`, the IC50 was at most 1000 nM.
Then `Cn1nnc([C@H](Cc2ccc(O)cc2)NC(=O)c2cc(C(=O)O)c3cc(-c4cccc(C(F)(F)F)c4)ccc3n2)n1`, with at most 1000 nM.
In turn, `COC(=O)[C@H](Cc1ccc(O)cc1)NC(=O)c1cc(C(=O)O)c2cc(-c3ccccc3C)ccc2n1` gave an IC50 of at most 1000 nM.
To `COC(=O)[C@H](Cc1ccc(O)cc1)NC(=O)c1cc(C(=O)O)c2cc(-c3ccc(-c4ccccc4)cc3)ccc2n1` belongs at most 1000 nM; to `NCC[C@H](Cc1ccc(O)cc1)NC(=O)c1cc(C(=O)O)c2cc(C=Cc3ccc(Cl)cc3)ccc2n1`, at most 1000 nM.
